Measured affinities in a library of Ab-14 heavy chain variants

Source: Engelhart et al. 2022 (doi:10.1038/s41597-022-01779-4), MIT Lincoln Laboratory and A-Alpha Bio; data file from the FLAb repository.

The target is the same throughout: PDVDLGDISGINAS, from the HR2 region of SARS-CoV-2 spike.

Each scFv is VH, a (GGGGS)3 linker, VL, as in the parent Ab-14, and differs from it in the CDRs of the heavy chain only.
VH: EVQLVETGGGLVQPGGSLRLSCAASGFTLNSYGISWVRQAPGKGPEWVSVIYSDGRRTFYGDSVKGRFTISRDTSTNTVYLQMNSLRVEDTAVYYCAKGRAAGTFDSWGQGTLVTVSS
VL: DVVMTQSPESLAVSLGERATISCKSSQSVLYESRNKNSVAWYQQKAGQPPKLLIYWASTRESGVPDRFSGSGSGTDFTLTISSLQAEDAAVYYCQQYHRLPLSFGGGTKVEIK

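In library AAYL49, one, two or three CDR residues were substituted; doubles and triples were drawn at random. The assay is AlphaSeq: two haploid yeast populations carry antibody and antigen on their surface. The frequency of each diploid, read from paired DNA barcodes, reflects how well the two displayed proteins bind. Read counts were normalised to the haploid input and turned into Kd by a linear fit to BCL2-family pairs of known affinity, for each replicate. Mating was done three times.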

Substitutions are numbered in sequence along the VH above, starting at 1 (not Kabat).
Scale: log10 of Kd in nM, estimated from mating counts; low values are strong binders.
"nd" means that the variant was in the library but no mating with the target was seen in that replicate; the authors take this as a sign of poor binding, and no number exists.
Background: pairings of library AAYL49 with three empty control strains gave a value in 15% of cases (median 4.06, 5th percentile 2.83). Values in that range, when seen in few replicates, are hard to tell from nonspecific mating. The control count says in how many pairings with the empty strains this scFv gave a signal, with their mean in brackets.

changes	log10 Kd (nM) by replicate	signal with controls
F27M/I34C/S35C	nd nd 5.23	4/9 (4.10)
F27I/V50P/D54M	nd nd nd	0/9
S31A/Y60C/R100T	2.59 2.94 2.49	2/9 (4.41)
D54W/T58G/S63N	nd nd nd	1/9 (2.90)
G26L/F27M/G103T	nd nd nd	0/9
Y52N/Y60S/G61S	nd 5.01 3.97	5/9 (4.18)
S53T/Y60F/G99L	4.72 nd nd	0/9
G61C/A101W/T104V	nd 2.90 nd	1/9 (2.58)
G26N/L29W	nd 4.43 nd	1/9 (3.23)
Y32L/I34E/G103F	nd nd 3.63	5/9 (4.04)
S63Y/K65F/G99A	4.24 nd nd	5/9 (4.63)
D54G/R56H/G103L	nd 4.37 nd	2/9 (4.46)
S35G/F59L/D106G	nd nd nd	4/9 (3.65)
I34V/S53N/V64H	nd nd nd	1/9 (3.62)
T28L/D54R/G55Y	5.17 5.66 5.12	6/9 (4.11)
L29R/Y32W/I51A	nd nd 2.52	2/9 (3.43)
G55C/Y60P/G103Q	nd nd 4.73	3/9 (4.97)
G55M/A102Y/D106S	nd nd nd	0/9
T28F/G99W/T104V	nd nd nd	0/9
L29G/D62K/V64E	6.65 3.77 nd	8/9 (4.56)
S53Q/T58N/G103M	nd nd nd	0/9
S53R/F59C/D106I	nd nd nd	1/9 (3.90)
F59T/G61W/D62S	nd nd nd	0/9
F59I/V64T	nd nd nd	1/9 (3.40)
S31H/I34T/S35D	nd 2.68 nd	1/9 (4.18)
T28P/V50R/R56S	nd nd nd	0/9
L29Y/I51K/K65H	nd nd 3.54	1/9 (2.97)
G99V/A101V/T104A	2.42 2.24 2.31	2/9 (4.49)
T28L/S63T	1.27 1.44 1.36	0/9
G33A/K65D/A101Y	nd nd 4.70	2/9 (4.04)
T58A/G61L/S63G	2.84 2.53 2.92	0/9
G26M/S53Y	2.74 nd nd	0/9
G33Y/I51S/D106Q	nd nd nd	0/9

For reference, 3 entries of the list once more:

changes,log10 Kd (nM) by replicate,signal with controls
T28F/G99W/T104V,nd nd nd,0/9
F59I/V64T,nd nd nd,1/9 (3.40)
F27I/V50P/D54M,nd nd nd,0/9